These are literature values, as cited in patent US20080070794A1, “Chemical sensors” (The Trustees of Princeton University, priority 2005, published 2008).

Molecules are shown by their SMILES.

Among the targets are alpha A1; Muscarinic; Melatonin.
Common to all, as to details: cited from earlier work
For a further data set, the system named is Histamine.

As usually defined, the Kd is the free concentration of one partner at which half of the binding sites on the other are occupied at equilibrium, for simple one-to-one binding. `O=C1CC2(CCCC2)CC(=O)N1CCCCN1CCN(c2ncccn2)CC1` [buspirone]: the Kd at alpha A1 and at Muscarinic was 100 µM in each case.
With `Clc1cccc(Cl)c1N=C1NCCN1` [clonidine], the Kd at Melatonin was 100 µM.
Regarding `CNC[C@H](O)c1ccc(O)c(O)c1` [epinephrine], the “x (efficacy factor) Histamine” value in the data set on Histamine is listed as 1.0.
